Experimental findings from publication PMC4337820 (Journal of medicinal chemistry, 2015) are described below.

The test system of the test is T. cruzi, strain Tulahuen C4 amastigotes. The experiment in a line: In vitro activity against T. cruzi amastigotes. Format: cell-based.

SMILES strings stand for the structures.

Consider `CC(O)(Cn1cncn1)c1ccc(-n2ccnc2)cc1` (centres unmarked) [Compound 15, 2-[4-(1H-imidazol-1-yl)phenyl]-1-(1H-1,2,4-triazol-1-yl)propan-2-ol], for which the “antichagasic activity class (TDR criteria)” value is “inactive”.

As for `CC1(c2ccc(-n3ccnc3)cc2)CO1` (centres unmarked) [Compound 22, 1-(4-(2-methyloxiran-2-yl)phenyl)-1H-imidazole], the “antichagasic activity class (TDR criteria)” value was “inactive”.
